Data published in ChEMBL document CHEMBL1129509, “Hypoxia-selective antitumor agents. 12. Nitrobenzyl quaternary salts as bioreductive prodrugs of the alkylating agent mechlorethamine” (1996).

System: CHO-AA8
Test: Cytotoxicity against AA8 cell and IC50 values were determined as drug concentration required to inhibit cell protein to 50%.

CN(CCCl)CCCl
IC50: 2 µM
